Test results from ChEMBL document CHEMBL1201862, “PubChem BioAssay data set” (2004).
Where “and” joins values, the source holds several entries; their conditions need not be identical. Identical values can stand only once. Calls of active or inactive are those of the source.

Protein sequences, listed by entry. Tags and fused reporters are not part of them. Lines headed by an entry give the natural chain unless they say otherwise; changes in a name come on top.
UniProt Q9HC29, whole entry: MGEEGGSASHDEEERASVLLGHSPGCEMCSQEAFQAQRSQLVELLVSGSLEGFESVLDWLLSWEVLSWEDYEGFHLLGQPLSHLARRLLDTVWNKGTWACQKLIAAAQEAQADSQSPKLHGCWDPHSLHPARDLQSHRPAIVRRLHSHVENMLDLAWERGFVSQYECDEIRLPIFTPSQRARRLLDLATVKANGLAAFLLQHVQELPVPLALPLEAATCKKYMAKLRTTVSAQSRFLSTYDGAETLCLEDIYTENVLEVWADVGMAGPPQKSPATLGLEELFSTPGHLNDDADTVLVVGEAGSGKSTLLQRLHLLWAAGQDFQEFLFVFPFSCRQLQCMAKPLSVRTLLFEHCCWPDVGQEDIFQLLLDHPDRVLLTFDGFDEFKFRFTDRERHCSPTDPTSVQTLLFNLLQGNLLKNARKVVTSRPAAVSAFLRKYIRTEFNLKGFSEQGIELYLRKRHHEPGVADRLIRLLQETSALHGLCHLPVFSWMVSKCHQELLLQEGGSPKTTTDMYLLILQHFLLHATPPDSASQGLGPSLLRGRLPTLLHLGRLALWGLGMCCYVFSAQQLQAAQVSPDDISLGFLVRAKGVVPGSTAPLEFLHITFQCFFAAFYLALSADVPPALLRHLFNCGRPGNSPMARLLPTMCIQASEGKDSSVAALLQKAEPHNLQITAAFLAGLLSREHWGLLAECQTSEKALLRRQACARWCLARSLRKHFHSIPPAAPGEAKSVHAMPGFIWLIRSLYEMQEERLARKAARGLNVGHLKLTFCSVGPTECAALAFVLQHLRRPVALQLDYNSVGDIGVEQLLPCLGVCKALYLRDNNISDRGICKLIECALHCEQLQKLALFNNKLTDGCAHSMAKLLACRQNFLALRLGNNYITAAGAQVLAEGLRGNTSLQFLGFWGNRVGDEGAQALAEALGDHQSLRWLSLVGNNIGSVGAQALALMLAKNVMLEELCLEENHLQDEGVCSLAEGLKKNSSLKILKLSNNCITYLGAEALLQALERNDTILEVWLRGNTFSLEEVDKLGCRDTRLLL
UniProt P41145: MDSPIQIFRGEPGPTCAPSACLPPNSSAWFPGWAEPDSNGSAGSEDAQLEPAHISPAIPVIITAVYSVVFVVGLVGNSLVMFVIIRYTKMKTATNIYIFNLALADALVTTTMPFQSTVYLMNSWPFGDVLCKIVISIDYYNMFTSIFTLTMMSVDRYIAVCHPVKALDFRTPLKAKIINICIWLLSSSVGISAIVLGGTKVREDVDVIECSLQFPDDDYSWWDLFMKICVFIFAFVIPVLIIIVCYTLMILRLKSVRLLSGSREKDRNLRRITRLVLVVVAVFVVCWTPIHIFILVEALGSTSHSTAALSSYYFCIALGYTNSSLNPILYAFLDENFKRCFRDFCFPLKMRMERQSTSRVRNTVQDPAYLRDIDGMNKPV

Experiments:
[1] = target: T1, Nucleotide-binding oligomerization domain-containing protein 1 (Homo sapiens, UniProt Q9Y239); assay: blockers of NOD1 pathway activity – revised, SAR follow-up (AID 2333); assay type: functional
T1 sequence (Q9Y239 whole entry): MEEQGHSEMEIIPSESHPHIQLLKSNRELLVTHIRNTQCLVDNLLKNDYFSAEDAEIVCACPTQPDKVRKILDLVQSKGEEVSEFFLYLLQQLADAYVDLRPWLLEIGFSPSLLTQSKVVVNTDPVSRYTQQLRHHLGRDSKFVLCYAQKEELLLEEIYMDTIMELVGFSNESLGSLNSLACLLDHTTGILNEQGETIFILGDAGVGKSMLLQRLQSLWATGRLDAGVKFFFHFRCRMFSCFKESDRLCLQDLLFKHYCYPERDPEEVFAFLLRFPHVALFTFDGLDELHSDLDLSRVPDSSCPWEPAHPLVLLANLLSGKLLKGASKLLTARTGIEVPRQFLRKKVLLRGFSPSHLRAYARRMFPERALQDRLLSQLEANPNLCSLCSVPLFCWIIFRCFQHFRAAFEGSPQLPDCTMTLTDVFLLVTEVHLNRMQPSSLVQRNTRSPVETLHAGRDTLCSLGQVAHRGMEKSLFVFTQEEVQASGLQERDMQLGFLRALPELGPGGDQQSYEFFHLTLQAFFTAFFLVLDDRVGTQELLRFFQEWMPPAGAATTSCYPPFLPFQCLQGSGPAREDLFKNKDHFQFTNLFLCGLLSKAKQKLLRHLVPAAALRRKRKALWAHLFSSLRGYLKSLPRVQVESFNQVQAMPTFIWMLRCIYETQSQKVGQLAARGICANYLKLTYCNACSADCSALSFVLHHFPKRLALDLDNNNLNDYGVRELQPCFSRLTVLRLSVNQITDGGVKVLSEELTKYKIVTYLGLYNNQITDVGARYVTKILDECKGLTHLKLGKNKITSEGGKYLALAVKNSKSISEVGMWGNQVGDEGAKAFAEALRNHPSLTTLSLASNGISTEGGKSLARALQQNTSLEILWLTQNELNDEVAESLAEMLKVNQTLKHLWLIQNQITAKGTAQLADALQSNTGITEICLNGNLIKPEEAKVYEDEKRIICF

[2] = target: Nucleotide-binding oligomerization domain-containing protein 2 (Homo sapiens, UniProt Q9HC29); assay: PubChem AID 2334; assay type: functional
HEK293 = assay: cells; settings: Homo sapiens
[3] = target: T2, Replicative DNA helicase DnaB (Mycobacterium tuberculosis, UniProt P9WMR3); assay: DnaB intein splicing inhibitors, dose response, biochemical, cell-free fluorescence (AID 449749); assay type: functional
T2 sequence (P9WMR3 whole entry): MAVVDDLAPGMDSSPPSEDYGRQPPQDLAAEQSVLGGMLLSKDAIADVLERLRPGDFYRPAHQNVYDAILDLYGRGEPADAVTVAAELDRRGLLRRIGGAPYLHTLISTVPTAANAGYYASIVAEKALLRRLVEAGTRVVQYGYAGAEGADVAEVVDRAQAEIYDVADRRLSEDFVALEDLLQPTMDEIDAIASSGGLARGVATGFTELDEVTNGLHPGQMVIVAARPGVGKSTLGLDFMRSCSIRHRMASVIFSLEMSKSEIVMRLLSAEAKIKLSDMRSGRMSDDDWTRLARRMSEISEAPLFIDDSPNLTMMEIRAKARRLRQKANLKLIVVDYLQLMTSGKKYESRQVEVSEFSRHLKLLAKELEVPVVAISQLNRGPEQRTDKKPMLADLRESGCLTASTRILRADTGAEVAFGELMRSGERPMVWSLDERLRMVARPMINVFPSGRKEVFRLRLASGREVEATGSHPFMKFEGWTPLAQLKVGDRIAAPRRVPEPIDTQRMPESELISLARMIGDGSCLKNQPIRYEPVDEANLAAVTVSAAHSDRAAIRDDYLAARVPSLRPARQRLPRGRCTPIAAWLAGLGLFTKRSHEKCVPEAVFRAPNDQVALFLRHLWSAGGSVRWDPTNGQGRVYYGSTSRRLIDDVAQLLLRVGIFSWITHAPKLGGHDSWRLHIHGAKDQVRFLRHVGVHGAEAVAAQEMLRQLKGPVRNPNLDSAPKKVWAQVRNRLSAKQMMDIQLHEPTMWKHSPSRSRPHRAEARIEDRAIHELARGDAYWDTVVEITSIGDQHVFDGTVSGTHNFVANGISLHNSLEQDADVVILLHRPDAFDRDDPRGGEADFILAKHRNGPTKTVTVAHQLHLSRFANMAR

[4] = target: T3, Kappa-type opioid receptor (Homo sapiens, UniProt P41145); assay: SAR analysis of small molecule antagonists of the kappa opioid receptor via a luminescent beta-arrestin assay - Set 6. [Related pubchem assays (depositor defined):AID1777, AID1778, AID1785, AID1786, AID1966, AID2133, AID2136, AID2285]; assay type: functional
[5] = target: T3, Kappa-type opioid receptor; assay: SAR analysis of small molecule antagonists of the kappa opioid receptor via a luminescent beta-arrestin assay - Set 3. [Related pubchem assays (depositor defined):AID1777, AID1778, AID1785, AID1786, AID1966, AID2133, AID2136, AID2285, AID2495]; assay type: functional

## Nc1nc2ccccc2n1C(=O)c1ccc(Cl)cc1Cl
[1]
  IC50: active: 2.84 µM

## Nc1nc2ccccc2n1Cc1ccc(Cl)cc1
[1]
  IC50: active: 9.5 µM and active: 7.73 µM
[2]
  IC50: active: 11800 nM
HEK293
  IC50: inactive: > 20000 nM

## Clc1ccc(COC(Cn2ccnc2)c2ccc(Cl)cc2Cl)c(Cl)c1 (configuration not stated) [MICONAZOLE NITRATE]
[3]
  AC50: active: 2740 nM

## COc1ccc(N2CCN(CCCNC(=O)Cn3c(=O)c4cccn4c4c(C)ccnc43)CC2)cc1
[4]
  IC50: active: 164 nM
[5]
  IC50: active: 77.4 nM
